Here are results for six molecules from US5594024A, “Centrally actig substituted phenylazacycloalkanes” (priority 1995, dated 1997).

The chains behind the UniProt entries cited, without tags or fusion partners.
UniProt P61169, whole entry: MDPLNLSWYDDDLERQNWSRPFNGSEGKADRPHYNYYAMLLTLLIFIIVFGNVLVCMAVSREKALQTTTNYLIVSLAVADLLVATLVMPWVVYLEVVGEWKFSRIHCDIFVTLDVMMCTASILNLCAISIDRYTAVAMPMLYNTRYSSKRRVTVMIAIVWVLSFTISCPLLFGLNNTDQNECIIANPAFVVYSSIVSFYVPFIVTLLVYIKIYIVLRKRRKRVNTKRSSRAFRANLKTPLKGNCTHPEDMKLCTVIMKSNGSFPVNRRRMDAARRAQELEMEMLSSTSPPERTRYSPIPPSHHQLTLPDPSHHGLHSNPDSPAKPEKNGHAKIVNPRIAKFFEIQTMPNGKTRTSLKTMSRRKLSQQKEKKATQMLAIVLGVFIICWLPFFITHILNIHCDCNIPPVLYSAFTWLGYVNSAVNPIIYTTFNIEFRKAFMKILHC

The term IC50 denotes the midpoint of a concentration-inhibition curve.

SMILES strings stand for the structures. “Also recorded” adds a separate entry of the source. Like-named read-outs stand apart in the source and are kept apart here.

Experiment [1] concerns habituated rats. Briefly: Locomotor activity and behavior in habituated rats. The class given is in vivo, rat (male Sprague-Dawley).
Experiment [2] addresses T1, D2 receptors (Rattus norvegicus, UniProt P61169).
T1 construct: Preparation of rat striatal membranes for (3H)-spiperone; from tissue; host or cells: rat striatum (striatal membranes)
The experiment in a line: D2 antagonist binding ([3H]-spiperone), rat striatum. To be noted: read-out: in vitro binding IC50, D2 -spip.

The subject of experiment [3] is DA receptor. The experiment in a line: DA metabolism (DOPAC, HVA levels) in habituated rats. In kind it is in vivo, rat (male Sprague-Dawley). The conditions noted are these: for response vs control in vivo at 400 µmol/kg: Rattus norvegicus, po, 1 h.

In the case of `C=CCN1CCC[C@@H](c2cccc(C#N)c2)C1` [Compound S-37, S-3-(3-Cyanophenyl-N-allyl)piperidine], in experiment [1] (100 μmol/kg sc), the Behavioral observations entry was “Activation”.
The same measure, in the same setting: to `CN1CCC[C@@H](c2cccc(C#N)c2)C1` [S-(+)-32, S-(+)-3-(3-Cyanophenyl-N-methyl)piperidine] belongs “Weak stim”; to `N#Cc1cccc([C@@H]2CCCN(CC3CC3)C2)c1` [Compound S-38, S-3-(3-Cyanophenyl-N-cyclopropylmethyl)piperidine], “Activation”.
As for `CCCN1CCCC(c2ccccc2OS(=O)(=O)C(F)(F)F)C1` (racemic) [Racemic-19, 3-((2-(Trifluoromethyl)sulfonyl)oxyphenyl-N-n-propyl)piperidine], in experiment [2], the IC50 worked out at 550 nM.
For the molecule `CCCN1CCCC(c2cccc(C#N)c2)C1` (racemic) [(+)-S-34], the Behavioral observations entry in experiment [1] (100 μmol/kg sc) is given as “Activation”.
With `CCCN1CCC[C@@H](c2cccc(C#N)c2)C1` [S-(-)-34, S-(-)-3-(3-Cyanophenyl-N-n-propyl)piperidine], the response vs control in vivo at 400 µmol/kg in experiment [3] (read-out: DOPAC limbic) turned out to be 246 ± 10%; in experiment [3] (read-out: DOPAC striatum), 259 ± 31%. In addition, in experiment [3] (sc), the “brain DA metabolism (HVA, DOPAC) (in words)” value is “pronounced and dose-dependent increase in brain DA metabolism”. The “efficacy of locomotor stimulation compared with reference compounds” value in experiment [1] was “lower than that of d-amphetamine but similar or even somewhat higher than that of the preferential DA autoreceptor antagonists (+)-AJ76 and (+)-UH232; also recorded: lower than that observed after classical stimulants like d-amphetamine and apomorphine but higher than that produced by the preferential dopamine autoreceptor antagonists (+)-UH232 and (+)-AJ76”. For the same molecule, the “locomotor activity in habituated rats (in words)” value in experiment [1] is “produced a locomotor stimulation in habituated rats”. The stereotyped behavior result in experiment [1] was “Stereotyped sniffing and rearing was also observed; also recorded: pronounced activation with weak stereotypies (sniffing and rearing)”. In addition, the Behavioral observations result in experiment [1] (25 μmol/kg po), in experiment [1] (100 μmol/kg sc) and in experiment [1] (400 μmol/kg po) was “Activation” throughout.
